Results on 1 molecule are retold here after patent US20070021484A1, “Substituted N-cinnamyl benzamides” (ChemoCentryx, Inc., priority 2005, published 2007).

The chains behind the UniProt entries cited, without tags or fusion partners.
UniProt P25106, whole entry: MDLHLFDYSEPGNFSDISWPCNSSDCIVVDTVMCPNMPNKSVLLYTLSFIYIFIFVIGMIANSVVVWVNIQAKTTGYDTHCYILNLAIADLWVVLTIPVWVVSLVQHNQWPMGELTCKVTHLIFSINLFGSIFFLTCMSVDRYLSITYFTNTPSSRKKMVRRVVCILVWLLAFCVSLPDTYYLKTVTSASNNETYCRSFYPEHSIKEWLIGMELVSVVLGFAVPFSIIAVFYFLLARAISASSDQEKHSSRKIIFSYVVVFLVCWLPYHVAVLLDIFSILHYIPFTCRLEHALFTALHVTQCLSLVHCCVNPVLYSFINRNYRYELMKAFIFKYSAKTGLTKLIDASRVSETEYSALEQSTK

Bounds are passed on as bounds.

This test deals with CCXCKR2 receptor (Homo sapiens, UniProt P25106). In words: Displacement of 125I-labeled SDF-1 from the CCXCKR2 receptor (radioligand binding, determination of IC50 values). The following applies: read-out: Activity; concentration displacing at least 50% of 125I SDF-1 from CCXCKR2; MCF-7 and/or CCXCKR2 transfected MDA-MB-435S cells; 3 hr at 4° C. The protocol:
The ability of the compounds to displace the labeled chemokine from the CCXCKR2 receptor sites at multiple concentrations was then determined with the screening process.
Compounds that were deemed effective modulators were able to displace at least 50% of the SDF-1 from the CCXCKR2 receptor at concentrations at or below 2.1 micromolar (μM), as represented by the notation (+) for certain exemplary compounds shown in Table B below, and more preferably at concentrations at or below 700 nanomolar (nM) (++). At present, especially preferred compounds can displace at least 50% of the SDF-1 from the CCXCKR2 receptor at concentrations at or below 500 nM (+++). As stated above, Exemplary compounds that met these criteria are reproduced in Table B below. All compounds were prepared as described in the Examples above, or by related methods substituting readily available starting materials. […]
In these assays, MCF-7 and/or MDA-MB-435S cells were interrogated with the target compounds and the ability of these compounds to displace ^125I radiolabeled SDF-1 was assessed using the protocol described in Dairaghi and Gosling. […] Scintillant (MicroScint 10, Packard) was added to the wells, and the filters were counted in a Packard Topcount scintillation counter. Data were analyzed and plotted using Prism (GraphPad Prism version 3.0a for Macintosh, GraphPad Software, www.graphpad.com).

With `COc1cc(C(=O)N(C/C(C)=C/c2ccccc2)C[C@@H]2CCCN2C[C@H]2CC[C@H](N)CC2)cc2c1OC(C)(C)O2`, the IC50 is less than 500 nM.
